Our source for the IC50 values is patent publication US7253211B2, “(R)-chiral halogenated substituted fused heterocyclic amino compounds useful for inhibiting cholesterol ester transfer protein activity” (Pfizer Inc., priority 1999, dated 2007).

Sequences of proteins named here, by UniProt entry; tags and fusion partners are left off. Residues count along the entry.
UniProt P11597, 18-493 limits assumed: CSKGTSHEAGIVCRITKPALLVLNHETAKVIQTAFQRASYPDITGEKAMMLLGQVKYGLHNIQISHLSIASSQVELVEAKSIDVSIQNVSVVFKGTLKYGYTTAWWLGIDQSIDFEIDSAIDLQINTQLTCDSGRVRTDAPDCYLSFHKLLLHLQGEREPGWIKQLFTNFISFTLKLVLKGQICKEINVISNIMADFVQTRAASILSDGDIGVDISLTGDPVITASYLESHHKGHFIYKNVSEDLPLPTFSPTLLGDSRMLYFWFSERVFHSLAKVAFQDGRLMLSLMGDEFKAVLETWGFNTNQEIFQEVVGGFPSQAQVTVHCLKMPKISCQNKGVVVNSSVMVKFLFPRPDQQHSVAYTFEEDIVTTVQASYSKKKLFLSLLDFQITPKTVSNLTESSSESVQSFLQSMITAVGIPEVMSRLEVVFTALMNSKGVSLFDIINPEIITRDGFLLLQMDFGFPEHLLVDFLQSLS

The IC50 is the concentration needed to halve the response being measured.

In test [1] the target is T1, CETP (Homo sapiens, UniProt P11597). Description: Assay of CETP Inhibition in Human Plasma. The test is classed as biochemical. Conditions: read-out: IC50 Inhibition of CETP Activity in Human Plasma Assay; human EDTA plasma pool, [3H]CE-HDL, 37° C., 4 hours.
Test [2] addresses T1, CETP. Description: Assay of CETP Inhibition Using Purified Components (Reconstituted Buffer Assay). The test is classed as biochemical.

Consider `CC(C)Oc1cccc(N(Cc2cccc(OC(F)(F)C(F)F)c2)C[C@@H](O)C(F)(F)F)c1`, for which the IC50 at CETP [1] is 2000 nM; against CETP [2], 66 nM.
As for `O[C@H](CN(Cc1cccc(OC(F)(F)F)c1)c1cccc(Br)c1)C(F)(F)F`, the IC50 against CETP [2] was found to be 3200 nM.
Still for that read-out and setting: in the case of `O[C@H](CNCc1cccc(OC(F)(F)F)c1)C(F)(F)F` it was over 50000 nM.
